Literature values, collected in PMC5601361, “Targeting the Receptor for Advanced Glycation Endproducts (RAGE): A Medicinal Chemistry Perspective” (Journal of Medicinal Chemistry, 2017).

Columns and labels:
diabetic mice = test system: diabetic mice; design: method as in PMID 18245563, PMID 26807573, PMID 14568011
[1] = test system: S100A7-expressing transgenic mice; design: method as in PMID 25572331
human RAGE-Aβ1–42 = conditions: ELISA on human RAGE-Aβ1–42

Compound: sRAGE: circulating soluble form of RAGE lacking transmembrane and cytoplasmic domains, acts as a decoy
- ischemia–reperfusion injury (diabetic mice): protects them against ischemia–reperfusion injury
- tumor development and metastasis [1]: inhibited further tumor development and metastasis

Compound: CCCCOc1cc(OCCCN(CC)CC)ccc1NC(=O)c1cc(-c2ccc(Oc3ccc(F)cc3)cc2)nn1C [Compound 7]
- IC50 (human RAGE-Aβ1–42): 1900 nM
